EPAC2 antagonist – qHTS for Antagonist of cAMP-regulated guanine nucleotide exchange factor 2 (EPAC2): primary screen | Potency, µM (titrated, usually from 114 µM), for inactives: at the top dose activity, negative = inhibition, usual class: inhibitors | AID 720708, 2013 | EPAC2 GEF exchange of Rap1B-BODIPY-GDP, fluorescence | 360,000 tested, 0.18% active; further: on the % scale 0 is the no-effect control and ±100 the full control effect; nearly all actives have a fitted effect of over 45% in size
Rango complex inh – qHTS Assay for Inhibitors of Rango (Ran-regulated importin-beta cargo) - Importin beta complex formation; Importin subunit beta-1 (Homo sapiens), Q14974; Rango CFP/YFP FRET sensor + importin beta, 45 min; Potency, µM (highest dose often 92.2 µM), inactives show at the highest dose inhibition of complex formation; 340,000 tested, 0.031% active; calls by dose curve;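 further: 0% = DMSO wells and 100% = buffer wells lacking importin beta; nearly all actives have a fitted effect of over 15% in size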
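FRET biosensor Rango (snurportin 1 IBB between N-terminal EYFP and C-terminal Cerulean), 50 nM in PBS/1 mM DTT/0.02% Tween-20/0.1% BSA, preincubated 5 min RT with compound; 0.125 microM importin beta added, 45 min RT, CFP/YFP FRET ratio read.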
EPAC1 antag – qHTS for Antagonist of cAMP-regulated guanine nucleotide exchange factor 3 (EPAC1): primary screen; EPAC1 GEF assay, Rap1b-BODIPY-GDP exchange fluorescence; Potency, µM (titrated, usually from 115 µM), for the others: top-dose activity change, negative = inhibition, actives largely listed as inhibitors; Rap guanine nucleotide exchange factor 3 (Homo sapiens), O95398; 360,000 tested, 0.14% active;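 further: plate controls were vehicle for no effect and positive control for full effect; nearly all actives have a fitted effect of over 50% in size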
EPAC2 ag – qHTS for Agonist of cAMP-regulated guanine nucleotide exchange factor 4 (EPAC2): primary screen. Rap guanine nucleotide exchange factor 4 (Homo sapiens), Q8WZA2. EPAC2 activation, biochemical qHTS; response scale: 100% = 6.5 mM cAMP response. Potency, µM (top dose mostly 154 µM), inactives show top-dose activation, usual class: activators. 360,000 tested, 0.079% active. AID 720711, 2013; further: nearly all actives have a fitted effect of over 50% in size
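qHTS, titration series. 100 nM EPAC2 / 250 nM Rap1B-BODIPY-GDP / 50 uM GDP; RT; ex 480/em 540 nm, 5-min reads to 30 min. Norm. to 6.5 mM cAMP = activation.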
EPAC1 agonist – qHTS for Agonist of cAMP-regulated guanine nucleotide exchange factor 3 (EPAC1): primary screen. Rap guanine nucleotide exchange factor 3 (Homo sapiens), O95398. EPAC1 agonist qHTS, biochemical assay; response scale: 100% = response to 6.5 mM cAMP. Potency, µM (series often up to 154 µM), for the others: top-dose activation, most hits filed as activators. 360,000 tested, 0.073% active; further: nearly all actives have a fitted effect of over 60% in size
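Nucleotide exchange assay: 100 nM EPAC1 with 250 nM Rap1B loaded with BODIPY-GDP and 50 uM GDP, room temperature. Fluorescence (480/540 nm) read every 5 min for 30 min; signal change normalized to 6.5 mM cAMP as full agonist.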
Rango dissoc inh – qHTS Assay for Inhibitors of RanGTP induced Rango (Ran-regulated importin-beta cargo) - Importin beta complex dissociation | Snurportin-1 (Homo sapiens) + GTP-binding nuclear protein Ran (Homo sapiens) + Importin … | Biochemical FRET Rango-importin beta, RanGTP-induced dissociation | Potency, µM (top dose mostly 46.1 µM), without a hit: top-dose activity change, negative = inhibition | 340,000 tested, 0.071% active | AID 540253, 2011; calls by dose curve; further: % of control where 0% means no effect; nearly all actives have a fitted effect of over 45% in size
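Rango/importin beta premix (0.1/0.25 uM final), PBS + 1 mM DTT + 0.02% Tween-20 + 0.1% BSA; cpd 5 min RT; FRET pre-read; + RanGTP-RCC1 (0.6 uM Ran, 2 mM GTP, 0.2 uM RCC1); 45 min RT; FRET post-read, ex 430, em 486/530 nm.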
Numbers without * were called inactive; i = inactive; ? = inconclusive; · = no result. Sampled rows, rich in hits. Any-hit rate of the full collection: about 0.43%. Unless noted, the call rests on the fitted dose curve; in most records, active means well fitted curve in the direction sought with a large enough effect; inconclusive means small, poorly fitted or top-dose-only effect, or another doubt; inactive means no such curve, though single readings can be large; an effect the other way counts as inactive or inconclusive. Potency means the concentration at half of the fitted maximal effect.

The chains behind the UniProt entries cited, without tags or fusion partners.
Importin subunit beta-1 (Homo sapiens), Q14974, UniProt Q14974, whole entry, looked up: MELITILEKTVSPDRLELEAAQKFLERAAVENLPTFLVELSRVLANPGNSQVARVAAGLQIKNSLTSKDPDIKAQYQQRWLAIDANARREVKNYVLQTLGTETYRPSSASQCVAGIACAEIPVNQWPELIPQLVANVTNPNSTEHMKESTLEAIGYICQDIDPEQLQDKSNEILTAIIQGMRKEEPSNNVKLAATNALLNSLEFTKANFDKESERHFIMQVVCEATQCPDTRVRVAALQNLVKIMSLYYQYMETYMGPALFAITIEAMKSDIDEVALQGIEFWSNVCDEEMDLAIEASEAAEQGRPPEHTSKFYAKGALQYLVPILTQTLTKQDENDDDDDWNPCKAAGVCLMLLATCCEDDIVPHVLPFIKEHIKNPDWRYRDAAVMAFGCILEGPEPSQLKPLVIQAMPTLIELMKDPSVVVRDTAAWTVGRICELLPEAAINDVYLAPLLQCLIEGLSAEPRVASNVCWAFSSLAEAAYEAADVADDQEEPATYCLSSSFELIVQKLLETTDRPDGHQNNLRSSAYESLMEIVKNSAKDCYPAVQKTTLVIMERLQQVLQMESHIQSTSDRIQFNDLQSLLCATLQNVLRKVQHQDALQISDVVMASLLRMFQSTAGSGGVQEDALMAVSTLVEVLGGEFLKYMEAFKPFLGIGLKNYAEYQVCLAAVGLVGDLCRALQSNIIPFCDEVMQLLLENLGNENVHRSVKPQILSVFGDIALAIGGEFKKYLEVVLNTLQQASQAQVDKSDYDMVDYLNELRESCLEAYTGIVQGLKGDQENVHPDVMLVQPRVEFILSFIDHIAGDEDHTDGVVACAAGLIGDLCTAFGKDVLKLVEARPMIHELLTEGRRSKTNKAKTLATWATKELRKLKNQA
Rap guanine nucleotide exchange factor 4 (Homo sapiens), Q8WZA2, UniProt Q8WZA2, whole entry, looked up: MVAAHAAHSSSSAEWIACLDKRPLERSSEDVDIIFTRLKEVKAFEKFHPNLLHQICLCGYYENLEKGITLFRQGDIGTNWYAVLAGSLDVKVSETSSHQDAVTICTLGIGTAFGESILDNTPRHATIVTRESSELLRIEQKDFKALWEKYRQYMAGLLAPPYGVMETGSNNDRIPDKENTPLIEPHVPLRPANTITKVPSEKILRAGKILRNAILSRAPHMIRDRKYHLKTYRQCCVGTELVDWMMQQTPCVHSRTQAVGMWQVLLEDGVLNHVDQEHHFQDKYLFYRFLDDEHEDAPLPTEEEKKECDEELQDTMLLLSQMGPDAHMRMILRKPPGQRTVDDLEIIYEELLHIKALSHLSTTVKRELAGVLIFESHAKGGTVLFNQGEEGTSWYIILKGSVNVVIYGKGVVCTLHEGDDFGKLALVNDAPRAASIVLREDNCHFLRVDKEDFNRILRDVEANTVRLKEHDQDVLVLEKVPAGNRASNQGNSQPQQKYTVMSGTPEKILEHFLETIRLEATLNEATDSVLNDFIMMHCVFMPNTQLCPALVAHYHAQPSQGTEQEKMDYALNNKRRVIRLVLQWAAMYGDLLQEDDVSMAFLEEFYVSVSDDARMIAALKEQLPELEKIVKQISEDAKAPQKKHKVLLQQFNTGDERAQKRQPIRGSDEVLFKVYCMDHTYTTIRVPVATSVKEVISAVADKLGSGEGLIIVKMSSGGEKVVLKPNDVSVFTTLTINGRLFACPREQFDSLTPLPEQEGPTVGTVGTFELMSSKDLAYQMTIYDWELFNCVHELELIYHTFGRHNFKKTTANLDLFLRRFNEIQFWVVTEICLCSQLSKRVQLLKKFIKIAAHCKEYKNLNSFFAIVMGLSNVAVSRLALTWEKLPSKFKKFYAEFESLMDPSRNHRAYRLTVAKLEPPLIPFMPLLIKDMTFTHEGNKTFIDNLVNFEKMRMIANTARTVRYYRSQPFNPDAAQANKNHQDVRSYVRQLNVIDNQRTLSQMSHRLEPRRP

no. | SMILES | EPAC2 antagonist | Rango complex inh | EPAC1 antag | EPAC2 ag | EPAC1 agonist | Rango dissoc inh
1 | Cn1cc(C(=O)C(=O)N2CCCCC2)c2ccccc21 | i | 0% | 31% | ? | 40µM* | 0%
2 | COc1ccc(S(=O)(=O)N2CCCCC2c2cc(C(=O)NCc3cccnc3)no2)cc1 (stereo not given) | ? | · | -8% | 3% | -6% | ·
3 | C=CCN1C(=O)/C(=C/c2ccc(OC(C)=O)c(OCC)c2[N+](=O)[O-])SC1=S | -29% | 7% | 71µM* | 13% | 0% | 11%
4 | O=C(COC(=O)c1ccc2[nH]c3c(c2c1)CCCC3)Nc1ccccc1 | 2% | ? | 10% | 0% | -7% | ?
5 | Cc1cccc(C)c1NC(=O)COC(=O)c1ccc2[nH]c3c(c2c1)CCCC3 | 5% | ? | -5% | 3% | -9% | 23µM*
6 | CC(OC(=O)/C(C#N)=C/c1ccc(N(C)C)cc1)C(=O)N(C)c1ccccc1 (stereo not given) | 56% | ? | 17% | 63µM* | 56µM* | ?
7 | CC(=O)Nc1ccc(NC(=O)C(C)OC(=O)/C(C#N)=C/c2ccc(N(C)C)cc2)cc1 (stereo not given) | 14% | ? | -17% | 10% | 1% | ?
8 | Cc1cccc(C)c1NC(=O)C1(C)CN(S(C)(=O)=O)CC(=O)N1CC(F)(F)F (stereo not given) | 2% | · | ? | 6% | ? | ·
9 | Nc1nnc(CC(=O)N/N=C/c2cccc([N+](=O)[O-])c2)s1 | 7% | 0% | -4% | 5% | -3% | 3%
10 | Nc1nnc(CC(=O)N/N=C/c2cc([N+](=O)[O-])cc(Br)c2O)s1 | -1% | ? | 50µM* | -2% | -8% | -11%
11 | CN1/C(=C\C=C(/C#N)C(=O)Nc2ccccc2F)C(C)(C)c2ccccc21 | 50% | ? | 16% | 100µM* | ? | ?
12 | Cc1ccc(SC/C(O)=C(\C#N)c2nc3ccccc3s2)cc1 | -26% | 0% | -11% | 10µM* | -3% | 0%

Given with each value named: 4 of the compounds above
[11] CN1/C(=C\C=C(/C#N)C(=O)Nc2ccccc2F)C(C)(C)c2ccccc21
  EPAC2 antagonist = 50%	Rango complex inh = ?	EPAC1 antag = 16%	EPAC2 ag = 100µM*	EPAC1 agonist = ?	Rango dissoc inh = ?

[6] CC(OC(=O)/C(C#N)=C/c1ccc(N(C)C)cc1)C(=O)N(C)c1ccccc1 (stereo not given)
  EPAC2 antagonist = 56%	Rango complex inh = ?	EPAC1 antag = 17%	EPAC2 ag = 63µM*	EPAC1 agonist = 56µM*	Rango dissoc inh = ?

[1] Cn1cc(C(=O)C(=O)N2CCCCC2)c2ccccc21
  EPAC2 antagonist = i	Rango complex inh = 0%	EPAC1 antag = 31%	EPAC2 ag = ?	EPAC1 agonist = 40µM*	Rango dissoc inh = 0%

[2] COc1ccc(S(=O)(=O)N2CCCCC2c2cc(C(=O)NCc3cccnc3)no2)cc1 (stereo not given)
  EPAC2 antagonist = ?	Rango complex inh = ·	EPAC1 antag = -8%	EPAC2 ag = 3%	EPAC1 agonist = -6%	Rango dissoc inh = ·

Later entries.
no. | SMILES | EPAC2 antagonist | Rango complex inh | EPAC1 antag | EPAC2 ag | EPAC1 agonist | Rango dissoc inh
13 | N#C/C(=C(/O)CSc1ccccn1)c1nc2ccccc2s1 | -18% | ? | 0% | 5% | 10% | ?
14 | O=S(c1cc(Cl)cc(Cl)c1O)c1cc(Cl)cc(Cl)c1O | 38µM* | · | 40µM* | -7% | -5% | ·
15 | Oc1c(Cl)cc(Cl)cc1CNc1nccs1 | -8% | -1% | 5% | 3% | 1% | ?
16 | O=c1cc(CN2CCN(c3ccc(Cl)c(Cl)c3)CC2)c2ccccc2o1 | 7% | · | -1% | 2% | -3% | ·
17 | NNC(=O)c1ccc(CN2C(=O)c3cccc4cccc2c34)cc1 | -5% | ? | -16% | 8% | 7% | 18µM*
18 | COc1ccccc1/C=N/NC(=O)c1ccc(CN2C(=O)c3cccc4cccc2c34)cc1 | 2% | ? | -13% | 5% | 12% | -29%
19 | O=C(Cn1cnc2scc(-c3cccc([N+](=O)[O-])c3)c2c1=O)NCc1ccco1 | 4% | -1% | 56µM* | -5% | 1% | 2%
20 | CCN1CCN(c2cc(N3CCN(C(=O)c4ccco4)CC3)c3c4c(onc24)-c2ccccc2C3=O)CC1 | 0% | 33µM* | ? | -4% | 12% | ?
21 | Oc1ccc(NCc2cccs2)cc1 | 5% | -6% | 56µM* | 7% | 12% | -7%
22 | O=C(O)Cn1cc(/C=C2/NC(=O)N(c3ccc(Cl)cc3)C2=O)c2ccccc21 | 5% | ? | -15% | -3% | 3% | 10µM*
23 | COc1ccc(OCC(O)CN(CCO)CC(O)Cn2ccc3ccccc32)cc1 (stereo not given) | -17% | 1% | -2% | 8% | -4% | 7%
24 | CCC(=C(c1ccc(OC)cc1)c1ccc(OC)cc1)c1cn(CC(O)CN(CCO)CCO)c2ccccc12 (stereo not given) | 14µM* | 2% | -6% | 3% | 2% | -5%
25 | CCC(=O)N1CCCC(C)(C(=O)NS(=O)(=O)c2ccccc2Cl)C1 (stereo not given) | 23% | · | 9% | -3% | 0% | ·
26 | CCCCCNC(=O)C(c1ccc(C(F)(F)F)cc1)n1c(=O)c(-c2ccco2)nc2ccccc21 (stereo not given) | 1% | · | ? | -18% | -28% | ·
27 | [N-]=[N+]=NC(c1ccccc1)C(NC(=O)c1cc(C(F)(F)F)cc(C(F)(F)F)c1)c1ccccc1 (stereo not given) | 40% | · | -8% | 5% | -13% | ·
28 | CCOc1ccc(-n2nc3ccc(N)cc3n2)cc1 | 6% | ? | -15% | 0% | 16% | 5.2µM*
29 | CC(Oc1ccc(-c2nnco2)cc1)C(=O)N1CCOCC1 (stereo not given) | 1% | -2% | -20% | -2% | 32µM* | -15%
30 | CC(=O)N1CCN(c2ccc(NCc3ccco3)cc2)CC1 | 2% | 1% | 1% | 8% | -5% | 11%
31 | CC(=O)N1CCN(c2ccc(NCc3ccc(-c4cccc(Cl)c4)o3)cc2)CC1 | 8% | ? | -5% | 4% | 5% | 12µM*
32 | COc1ccccc1Cc1c(C(C)(C)C)nc2ccc(C)cn12 | -10% | · | -4% | 3% | -7% | ·
33 | Cn1cc(/C=C2\SC(=S)N(NC(=O)c3ccccc3Cl)C2=O)c2ccccc21 | 23% | ? | 68% | ? | 100µM* | ?
34 | Cc1ccc(C(=O)NN2C(=O)/C(=C/c3cccn3C)SC2=S)cc1 | -1% | ? | -7% | 22% | 13% | ?
35 | Cn1cccc1/C=C1\SC(=S)N(NC(=O)c2ccccc2Cl)C1=O | 41% | ? | -13% | -147% | -166% | ?
36 | Cc1ccc(C(=O)NN2C(=O)/C(=C/c3cn(C)c4ccccc34)SC2=S)cc1 | 17% | ? | -1% | 4% | 100µM* | ?
37 | CCOC(=O)C1=CCN(S(=O)(=O)c2ccc(Br)cc2)C1c1cccc(C)c1 (stereo not given) | -21% | · | -16% | 7% | -3% | ·
38 | CC(C)C[C@@H]1CC2=C(C(=O)OC(C)(C)O2)[C@H](CCc2ccccc2)O1 | -17% | · | 3% | -2% | -12% | ·

High-throughput results (PubChem)
